{
  "sequences": {"note": "The chains behind the UniProt entries cited, without tags or fusion partners.", "UniProt Q00987, whole entry": "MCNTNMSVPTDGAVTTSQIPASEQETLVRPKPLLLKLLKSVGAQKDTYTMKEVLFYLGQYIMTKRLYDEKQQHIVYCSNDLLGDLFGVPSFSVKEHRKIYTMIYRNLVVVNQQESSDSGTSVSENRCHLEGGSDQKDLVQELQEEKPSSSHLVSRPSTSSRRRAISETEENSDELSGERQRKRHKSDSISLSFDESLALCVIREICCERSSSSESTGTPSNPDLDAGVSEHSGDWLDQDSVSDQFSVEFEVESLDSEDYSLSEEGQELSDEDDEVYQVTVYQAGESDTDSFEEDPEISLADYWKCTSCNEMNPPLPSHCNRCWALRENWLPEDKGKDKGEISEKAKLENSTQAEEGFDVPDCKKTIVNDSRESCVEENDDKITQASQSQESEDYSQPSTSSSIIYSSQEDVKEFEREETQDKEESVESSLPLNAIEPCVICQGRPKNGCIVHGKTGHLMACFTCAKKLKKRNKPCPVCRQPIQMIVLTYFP"},
  "source": "patent US20250076288A1",
  "about": "“STABILIZED PEPTIDES FOR BIOMARKER DETECTION” (Dana-Farber Cancer Institute, Inc., priority 2018, published 2025)",
  "target": "T1, HDM2 (Homo sapiens, UniProt Q00987)",
  "T1 construct": "expressed in transfected cells; co-transfected with GBP-LaminB1",
  "assay": "Colocalization of biotin-labeled stapled peptide with GFP-HDM2 in transfected fixed cells",
  "assay_type": "cell-based",
  "settings": "co-transfection with GBP-LaminB1, fixed cells, FIGS. 8A-C",
  "source_text": "In this example, a stapled p53 peptide that targets HDM2 was labeled with biotin as described above (see, e.g., FIG. 1 and Examples 3 and 4) to detect HDM2 in cells and tissues. The construct and approach was validated in cells transfected with GFP-labeled HDM2 and assessed for colocalization with the HDM2-targeting, biotin-labeled stapled peptide, ATSP-7041 (SEQ ID NO:26).",
  "data": [
    {"sequence": "LTFZEYWAQOXSAA [ATSP-7041]", "values": [
      {"measurement": "colocalization with GFP-HDM2 relocalized to the nuclear lamina", "result": "Colocalization was successfully demonstrated"}
    ]}
  ]
}
